Laboratory results reported in ChEMBL document CHEMBL5532639, “Heterocyclic pyrimidine derivatives as promising antibacterial agents” (Eur J Med Chem, 2023).

Assays:
Escherichia coli [1] = assay: Antibacterial activity against Escherichia coli; type: functional
Staphylococcus aureus = conditions: ATCC 25923, time 24.0 hrs
Escherichia coli [2] = conditions: ATCC 25922, time 24.0 hrs

## GENTAMICIN
Escherichia coli [1]
  MIC: 0.49 µg/mL
Staphylococcus aureus
  MIC: 0.5 µg/mL
Escherichia coli [2]
  MIC: 0.5 µg/mL
